Assay results taken from patent US9428501B2, “Bicyclic nitrogen-containing aromatic heterocyclic amide compound” (ASTELLAS PHARMA INC., priority 2013, dated 2016).

By UniProt entry, the sequences of proteins in these tests, tags left out. Residues count along the entry.
UniProt O75251, 39-213 limits assumed: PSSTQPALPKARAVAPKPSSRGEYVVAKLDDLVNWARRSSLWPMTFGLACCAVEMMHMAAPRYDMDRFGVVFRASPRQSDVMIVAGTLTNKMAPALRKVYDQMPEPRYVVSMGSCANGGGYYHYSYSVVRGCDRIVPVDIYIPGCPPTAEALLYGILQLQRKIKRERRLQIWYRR
UniProt O75306, 34-463 limits assumed: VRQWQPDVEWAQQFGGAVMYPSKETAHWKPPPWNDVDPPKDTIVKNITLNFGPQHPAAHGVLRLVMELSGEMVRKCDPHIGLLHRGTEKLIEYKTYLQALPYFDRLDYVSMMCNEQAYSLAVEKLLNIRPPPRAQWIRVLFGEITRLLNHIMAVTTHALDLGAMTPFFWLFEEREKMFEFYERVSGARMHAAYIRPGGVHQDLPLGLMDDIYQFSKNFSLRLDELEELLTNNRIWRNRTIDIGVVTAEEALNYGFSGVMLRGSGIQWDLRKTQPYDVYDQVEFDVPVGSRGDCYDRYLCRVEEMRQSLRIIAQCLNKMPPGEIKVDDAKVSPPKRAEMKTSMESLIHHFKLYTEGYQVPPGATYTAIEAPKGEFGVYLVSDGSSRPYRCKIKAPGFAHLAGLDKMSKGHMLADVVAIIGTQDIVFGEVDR
UniProt P03886, whole entry: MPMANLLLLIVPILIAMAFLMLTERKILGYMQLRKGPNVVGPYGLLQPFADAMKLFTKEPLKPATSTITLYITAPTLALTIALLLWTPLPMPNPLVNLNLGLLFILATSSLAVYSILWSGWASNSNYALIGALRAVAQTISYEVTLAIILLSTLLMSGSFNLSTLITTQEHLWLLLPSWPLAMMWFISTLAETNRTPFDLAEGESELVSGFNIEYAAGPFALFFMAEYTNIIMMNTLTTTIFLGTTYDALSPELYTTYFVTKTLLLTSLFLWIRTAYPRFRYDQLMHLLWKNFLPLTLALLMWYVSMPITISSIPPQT

Columns and labels:
[1] = system: human PIK3CA mutation-positive breast cancer cell line MDA-MB-453 cells; assay: Scaffold independent cell proliferation inhibitory effect, MDA-MB-453 cells; type: cell-based; conditions: 96 h, non-adhesive plate, 4 days, CellTiter-Glo, read-out: IC50 (cell proliferation inhibition)
Method: The effect on proliferation of cancer cells of the test compound was evaluated.
Measurement (colony method) of the scaffold independent cell proliferation is known as a system in which the anti-cancer effect of the test compound is examined. As a method for measuring cell-non-adhesive proliferation substituting the colony method, there is a method of using a non-adhesive plate as follows.
Thereafter, the cells were cultured for 4 days at 37° C. in the absence of CO2, and a cytometric reagent (CellTiter-Glo Luminescent Cell Viability assay manufactured by Promega Corporation) was added. The resultant product was stirred for 30 minutes, and then measurement was carried out using a luminescence measurement apparatus (ARVO manufactured by Perkin Elmer Inc.).

[2] = molecular target: human mitochondrial Complex I (Homo sapiens, UniProt O75251+O75306+P03886); type: biochemical; conditions: mitochondria from MDA-MB-453 tumor, absorbance 600 nm, 37° C.; read-out: IC50 (Complex I inhibition)
Method: Mitochondria was extracted from MDA-MB-453 tumor, and the Complex I inhibitory activity of the test compound was evaluated.
Human PIK3CA mutation-positive breast cancer cell line MDA-MB-453 cells were subcutaneously implanted into nude mice, MDA-MB-453 tumor was excised, a mitochondria extraction solution (0.25 M Sucrose, 2 mM EDTA, 10 mM Tris/HCl pH 7.5) of 9 times of tumor weight was added thereto, and crushing was carried out thereon. The reaction mixture was centrifuged at 600×g and 4° C. for 10 minutes to obtain a supernatant, and the supernatant was centrifuged at 14000×g and 4° C. for 10 minutes, thereby obtaining a pellet. The pellet was suspended in 10 mM Tris/HCl pH 7.5 of 5 times of the excised tumor weight, thereby obtaining a human mitochondrial suspension.
Next, 25 μl of the human mitochondrial suspension per 1 ml of Complex I activity measurement solution (200 mM potassium phosphate pH 7.6, 0.35% Bovine Serum Albumin (BSA), 60 μM 2,6-dichlorophenol-indophenol, 70 μM decylubiquinone, 1 μM antimycin) was added. […] Further, NADH was added so as to have a final concentration of 0.2 mM, and a change in absorbance at a wavelength of 600 nm using SpectraMax (manufactured by Molecular Devices LLC) set to 37° C. in advance was measured. […]

IC50 [1]	Compound	IC50 [2]
2.5 nM	COc1ccc(CN2CCC(c3ccc4nc(C(=O)N5CCN(Cc6ccc(C(F)(F)F)cc6)CC5)n(C)c4c3)CC2)cn1 [Example 18]	
5.2 nM	COc1ccc(CN2CCC(c3ccc4nc(C(=O)N5CCN(Cc6ccc(C(F)(F)F)cc6)CC5)cn4c3)CC2)cn1 [Example 35]	1.8 nM
0.65 nM	COc1ccc(CN2CCC(n3cc4cc(C(=O)N5CCN(Cc6ccc(C(F)(F)F)cc6)CC5)ccc4n3)CC2)cn1 [Example 57]	12 nM
